## AlphaSeq binding of Ab-95 light chain variants to a spike HR2 peptide

Values reported by Engelhart et al. 2022, doi:10.1038/s41597-022-01779-4 (FLAb copy).

All variants were tested on one target, the spike HR2 peptide PDVDLGDISGINAS (SARS-CoV-2).

Parent: Ab-95, a human scFv built as VH, three GGGGS repeats, VL. Only the CDRs of the light chain vary.
VH: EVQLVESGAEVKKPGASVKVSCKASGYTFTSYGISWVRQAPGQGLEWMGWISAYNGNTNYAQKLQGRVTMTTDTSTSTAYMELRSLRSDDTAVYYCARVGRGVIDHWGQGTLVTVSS
VL: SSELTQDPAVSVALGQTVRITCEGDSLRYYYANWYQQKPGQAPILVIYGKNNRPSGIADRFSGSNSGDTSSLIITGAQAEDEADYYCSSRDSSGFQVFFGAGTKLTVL

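The library (AAYL52) carries one to three amino acid substitutions per variant, with no insertions or deletions. Affinity was read by AlphaSeq, a pooled yeast mating assay with surface-displayed partners. After mating in shaken culture at 30 °C for 16 h, diploids were selected and their barcode pairs sequenced. A regression on co-assayed BCL2-family reference pairs converts the normalised counts of each replicate to an apparent Kd. The assay was run in three technical replicates.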

Variants are written as CDR1, CDR2 and CDR3 of the light chain (limits as in the source). Parent: EGDSLRYYYAN, GKNNRPS, SSRDSSGFQVF. This list gathers variants with a substitution at S93 (VL, numbered from residue 1). The read-out is the apparent dissociation constant on a log10 scale (nM): the lower, the stronger. Averages over replicates are reported, and they cover detected replicates only. "nd" marks a missing value. The strain was present, yet no cells mated with the target were sequenced in that replicate, which points to weak or no binding. Nonspecific signal, from three strains lacking the peptide, appeared in 28% of pairings of library AAYL52, centred on 3.91 (5% of these signals below 2.90); values are not corrected for it.

With EGDSLRYYYAN | GKNNRPS | SSRDSMGFQPG the result was 2.11, 2.03, 1.49 (mean 1.88). With EGCSLRYYYAN | GKNNRPS | SSRDWRGFQVF the result was 3.16, 3.13, 3.71 (mean 3.33). For EGDSLREYYAN | GKNNRPS | SSRDSYGFQVF, the assay gave 4.21, 5.25, nd (mean 4.73). For EGDSLRYYYAN | GKNNRYS | SMRDSIGFQVF, the assay gave nd, nd, 3.65. Variant EGDSLRYYYAN | PKNNRPS | SSRDSPGFQLF gave 4.53, 3.53, nd (mean 4.03). With EGDSLRYIYAN | GKNNRPS | SSYDSIGFQVF the result was 3.38, 3.00, nd (mean 3.19). Variant EGDSLRYYYAN | GKNNRPS | SSRASKWFQVF showed nd, nd, 3.84.

Variant EGDSLRYYYAN | AKNYRPS | SSRDSEGFQVF showed nd, nd, nd. Variant EGDSLRYYYAN | GINNRPS | SSRDSEGFQVF showed 3.24, 2.71, 2.21 (mean 2.72). With EMDSLRPYYAN | GKNNRPS | SSRDSKGFQVF the result was 2.89, 2.51, 3.10 (mean 2.83). Variant EGDSLRYYYAN | KINNRPS | SSRDSCGFQVF showed nd, 3.41, nd. Variant EGDSLRYYYAN | GMNNRPS | QSRDSWGFQVF gave nd, 2.94, 3.41 (mean 3.18). Variant EGDSLRYWYAN | GKNNRPS | ISRDSIGFQVF gave 2.14, 2.45, 1.32 (mean 1.97). For EGDFLRYYYAN | GKNNRPS | SSRDSLGFDVF, the assay gave 4.10, 4.52, 3.78 (mean 4.13).

With EGDSLRYYYAN | GFNNRPS | SSIDSVGFQVF the result was 4.10, 3.36, 3.99 (mean 3.82). For EGDSLRYYYAN | GDNNNPS | SSRDSCGFQVF, the assay gave 3.77, nd, nd. For PGDSLRYYYAN | GKNNPPS | SSRDSKGFQVF, the assay gave nd, nd, nd. With EGDSKRYYAAN | GKNNRPS | SSRDSAGFQVF the result was 2.70, 3.77, 2.80 (mean 3.09). With EIDSGRYYYAN | GKNNRPS | SSRDSHGFQVF the result was 3.78, nd, nd. For EGDSLRYYYAN | GKNHRPS | SSRDSVGFQVN, the assay gave 3.51, 3.18, 4.37 (mean 3.69). Variant EGDSLRYYYAN | GKNNRHS | SSQDSEGFQVF showed nd, 4.83, nd.

With EGDSLRYRYAN | GKNNRPS | SSRDWCGFQVF the result was 2.10, 3.28, nd (mean 2.69). Variant EGDSLRYYYAG | GKNNRPS | SSRDSAGFQVL showed nd, nd, 4.03. Variant EGDSLRYYYAN | GKNNRPS | SSRRSPGFQVG showed nd, nd, 3.91. Variant EGDSLRYYYAN | GKNNRPS | SFVDSKGFQVF gave nd, nd, nd. With EGDSLRSPYAN | GKNNRPS | SSRDSGGFQVF the result was 2.70, 2.49, 2.56 (mean 2.58). Variant EGSSLRYYYAN | GKNNRPS | SSRDFDGFQVF gave 2.31, 2.59, 3.08 (mean 2.66). Variant EGDHLVYYYAN | GKNNRPS | SSRDSLGFQVF gave 4.61, nd, nd.

With EGDSLRYYYAN | GKNIRPS | SSRDSQGFQVF the result was 2.57, 2.54, 1.85 (mean 2.32). Variant EGDSLRYYYAN | GKNNRPS | SSRESHGFQLF gave 1.91, 2.27, 1.34 (mean 1.84). For EGESLRYYYAN | GKNNRPS | SSRDENGFQVF, the assay gave 1.83, 1.71, 1.51 (mean 1.68). Variant EGDSLRYYYAN | GKNNRPS | SSRDSFGFQKV showed 4.25, 3.91, nd (mean 4.08). For EGDSLRVYYAN | GKNNRKS | SSRDSKGFQVF, the assay gave 4.41, nd, nd. For EGDSLRYYYSN | GKNNRPS | SSQDSKGFQVF, the assay gave nd, 5.66, nd. Variant MGDSLRYYYAN | GKNNRPY | SSRDSIGFQVF gave nd, 4.15, nd.

Variant EGDSLRQYYAC | GKNNRPS | SSRDSAGFQVF showed 3.83, nd, nd. With EGDSLRYYYAN | SKRNRPS | SSRDSNGFQVF the result was nd, nd, nd. For EGDSLRYYYAN | GKNNRPS | SSRDSCGFQVF, the assay gave 2.77, 3.20, 2.94 (mean 2.97). Variant EGDSLRSYYAN | GKCNRPS | SSRDSKGFQVF showed 3.38, 4.70, nd (mean 4.04). Variant EGQSLRYYYAN | GKANRPS | SSRDSNGFQVF showed 3.09, 2.72, 3.00 (mean 2.94). Variant EGDSLRYYYAN | WKNNRPL | SSRDSVGFQVF showed 3.54, 3.78, nd (mean 3.66). Variant EGDSLRYYYAN | MKNQRPS | SSRDSYGFQVF gave nd, nd, nd.

Variant EGDSLRYYYCN | GKNNRPS | SSRDSQGFQEF gave nd, nd, nd. With EGDGLRYYYAN | GKNNRPS | SSRDSVGFQTF the result was 2.31, 2.56, 1.95 (mean 2.27). Variant EGDSLRMYYAN | GKNNRPS | SSRDSMGFQVF gave 3.16, 2.30, 2.76 (mean 2.74).

The opening 8 entries, copied out:

CDR-L1,CDR-L2,CDR-L3,log10 Kd (nM) by replicate,"mean, log10 nM"
EGDSLRYYYAN,GKNNRPS,SSRDSMGFQPG,"2.11, 2.03, 1.49",1.88
EGCSLRYYYAN,GKNNRPS,SSRDWRGFQVF,"3.16, 3.13, 3.71",3.33
EGDSLREYYAN,GKNNRPS,SSRDSYGFQVF,"4.21, 5.25, nd",4.73
EGDSLRYYYAN,GKNNRYS,SMRDSIGFQVF,"nd, nd, 3.65",3.65
EGDSLRYYYAN,PKNNRPS,SSRDSPGFQLF,"4.53, 3.53, nd",4.03
EGDSLRYIYAN,GKNNRPS,SSYDSIGFQVF,"3.38, 3.00, nd",3.19
EGDSLRYYYAN,GKNNRPS,SSRASKWFQVF,"nd, nd, 3.84",3.84
EGDSLRYYYAN,AKNYRPS,SSRDSEGFQVF,"nd, nd, nd",nd

Parent in this assay: reference entry 2.31, copy in this library 2.25.